Measurements: patent US11447485B2, “Class of bifunctional compounds with quanternary ammonium salt structure” (Beijing Showby Pharmaceutical Co., Ltd., priority 2016, dated 2022)

The chains behind the UniProt entries cited, without tags or fusion partners.
UniProt P11229, whole entry: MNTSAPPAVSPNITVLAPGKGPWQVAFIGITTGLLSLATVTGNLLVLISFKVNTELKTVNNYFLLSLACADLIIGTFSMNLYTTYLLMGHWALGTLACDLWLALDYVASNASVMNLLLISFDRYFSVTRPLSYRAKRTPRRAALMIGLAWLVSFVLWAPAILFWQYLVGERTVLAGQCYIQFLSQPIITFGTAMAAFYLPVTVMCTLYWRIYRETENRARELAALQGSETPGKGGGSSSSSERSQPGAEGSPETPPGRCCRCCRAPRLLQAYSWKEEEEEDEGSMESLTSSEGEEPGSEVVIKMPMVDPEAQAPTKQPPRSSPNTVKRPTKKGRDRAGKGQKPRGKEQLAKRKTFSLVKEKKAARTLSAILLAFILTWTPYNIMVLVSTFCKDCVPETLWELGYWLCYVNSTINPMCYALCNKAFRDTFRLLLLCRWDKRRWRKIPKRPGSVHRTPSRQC
UniProt P08588, whole entry: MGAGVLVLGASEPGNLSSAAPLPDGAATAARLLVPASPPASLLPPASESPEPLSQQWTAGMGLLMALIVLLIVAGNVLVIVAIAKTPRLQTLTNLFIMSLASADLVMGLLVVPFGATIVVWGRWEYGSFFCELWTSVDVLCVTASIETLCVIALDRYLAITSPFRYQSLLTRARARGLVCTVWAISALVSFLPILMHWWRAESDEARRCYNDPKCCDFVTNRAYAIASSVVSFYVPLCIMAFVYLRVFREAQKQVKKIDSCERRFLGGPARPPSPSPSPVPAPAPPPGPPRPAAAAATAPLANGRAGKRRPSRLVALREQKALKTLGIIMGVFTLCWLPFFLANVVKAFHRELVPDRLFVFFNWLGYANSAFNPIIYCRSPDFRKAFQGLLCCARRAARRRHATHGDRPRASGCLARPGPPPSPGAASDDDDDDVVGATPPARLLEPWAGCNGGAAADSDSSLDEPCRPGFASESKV
UniProt P20309, whole entry: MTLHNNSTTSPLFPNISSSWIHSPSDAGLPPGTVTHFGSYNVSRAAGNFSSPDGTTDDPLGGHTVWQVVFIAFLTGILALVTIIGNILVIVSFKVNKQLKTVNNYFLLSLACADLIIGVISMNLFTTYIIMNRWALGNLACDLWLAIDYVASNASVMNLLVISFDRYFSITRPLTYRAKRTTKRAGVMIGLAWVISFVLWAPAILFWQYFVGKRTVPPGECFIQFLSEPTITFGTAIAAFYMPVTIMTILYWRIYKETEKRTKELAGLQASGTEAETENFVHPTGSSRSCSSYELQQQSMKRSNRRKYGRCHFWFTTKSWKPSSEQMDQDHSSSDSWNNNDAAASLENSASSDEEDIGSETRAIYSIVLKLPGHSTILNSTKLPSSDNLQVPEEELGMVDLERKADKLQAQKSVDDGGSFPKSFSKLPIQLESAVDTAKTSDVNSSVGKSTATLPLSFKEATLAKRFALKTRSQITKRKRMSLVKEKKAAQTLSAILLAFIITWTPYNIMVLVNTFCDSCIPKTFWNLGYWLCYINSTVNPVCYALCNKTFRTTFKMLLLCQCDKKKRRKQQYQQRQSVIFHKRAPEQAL
UniProt P08172, whole entry: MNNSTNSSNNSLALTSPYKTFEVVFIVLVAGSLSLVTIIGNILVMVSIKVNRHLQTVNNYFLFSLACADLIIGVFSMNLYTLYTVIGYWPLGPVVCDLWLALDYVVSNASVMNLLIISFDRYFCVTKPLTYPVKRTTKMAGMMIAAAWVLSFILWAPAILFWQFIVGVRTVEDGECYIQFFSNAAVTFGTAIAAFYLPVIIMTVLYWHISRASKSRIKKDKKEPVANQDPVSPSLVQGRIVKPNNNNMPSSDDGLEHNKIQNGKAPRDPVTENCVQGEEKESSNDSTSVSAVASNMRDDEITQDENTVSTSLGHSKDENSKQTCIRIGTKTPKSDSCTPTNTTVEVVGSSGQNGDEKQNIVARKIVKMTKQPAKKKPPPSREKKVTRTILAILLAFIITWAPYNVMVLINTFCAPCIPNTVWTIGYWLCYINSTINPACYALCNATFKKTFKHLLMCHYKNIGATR

Experiments:
[1] = target: human recombinant β2 adrenoceptor (Homo sapiens, UniProt P07550); experiment: cAMP accumulation, human recombinant β2 adrenoceptor; assay type: cell-based; conditions: tested form: Br
[2] = target: human recombinant M1 receptor (Homo sapiens, UniProt P11229); experiment: [3H]-QNB competitive binding, CHOm1 cell membranes; conditions: tested form: Br
[3] = target: human recombinant β1 adrenoceptor (Homo sapiens, UniProt P08588); experiment: cAMP accumulation, human recombinant β1 adrenoceptor; assay type: cell-based; conditions: read-out: EC50 (β1) nM, 10 nM ICI118551 added, HEK293 cells, tested form: Br
[4] = system: tracheal smooth muscle of guinea pig; experiment: Relaxation of CCh-induced constriction of isolated guinea pig tracheal smooth muscle (Experimental Example 1); conditions: in vitro, tested form: Br
[5] = target: human recombinant M3 receptor (Homo sapiens, UniProt P20309); experiment: [3H]-QNB competitive binding, CHOm3 cell membranes; conditions: tested form: Br
[6] = target: human recombinant M2 receptor (Homo sapiens, UniProt P08172); experiment: [3H]-QNB competitive binding, CHOm2 cell membranes; conditions: read-out: hM2Ki; 3H-QNB 1.81 nmol/L, 25° C., 5 h; tested form: Br

For O=C1COc2c(cc(O)cc2C(O)CNCCOc2ccc(OCC[N+]34CCC(CC3)C(OCC(O)(c3ccccc3)C3CCCC3)C4)cc2)N1 (stereo not drawn), the EC50 ([1]; read-out: EC50 (β2) nM, cAMP accumulation) was 1.2 nM, the “sel (β1/β2)” value [1] was 9.8 and the M1/M2 ([2]; Mx/My = Ki(y)/Ki(x)) was 0.9849. The Ki ([2]; read-out: hM1Ki, 3H-QNB 1.042 nmol/L, 25° C., 5 h) was 1.32 nM, the EC50 [3] was 12 nM and the “Onset time (min) ± SD” value ([4]; CCh 3 × 10^−6 mol/L) was 6.85 ± 0.35 min. For the same compound, the “Time for eliminating inhibition effect (min)” value ([4]; CCh 3 × 10^−6 mol/L) was “more than 300 min”, the EC50 ([4]; read-out: EC50 (μM) ± SD, constriction induced by CCh 3 × 10^−6 mol/L) was 0.0379 µM and the M1/M3 ([5]; Mx/My = Ki(y)/Ki(x)) was 0.4803. For the same compound, the M2/M3 ([5]; Mx/My = Ki(y)/Ki(x)) was 0.4877, the Ki ([5]; read-out: hM3Ki, 3H-QNB 1.042 nmol/L, 25° C., 5 h) was 0.635 nM and the Ki [6] was 1.3 nM.
